Values joined by “and” are separate entries in the source; they are usually repeats but may differ in a detail not shown here. Equal entries are not always repeated. This is a selection; strong and weak results do not stand in their true shares. Records with an inconclusive call do not appear. Active and inactive are the calls of the source. The call rests on the fitted dose curve; in most records, active means well fitted inhibition curve with a large enough effect in the signal ratio in the repeat runs (not every such curve was filed as active); inconclusive means weak or mixed curves, or effect the other way; inactive means flat fitted curve, though single readings scatter; the % refers to the signal ratio.
Assay: cAMP Responsive Elements (CRE) small molecule antagonists, cell-based qHTS assay (AID 1963591)
Details: CRE-bla HEK293T, beta-lactamase FRET ratio; at 92.4 µM (top of the series) unless noted
Source text: U.S. Tox21 Program National Center for Advancing Translational Sciences [NCATS] Division of Preclinical Innovation [DPI] U.S. Environmental Protection Agency [EPA] National Institutes of Environmental Health Sciences [NIEHS] National Toxicology Program [NTP] U.S. Food and Drug Administration [FDA] Tox21 Assay Overview: CREB (cyclic-AMP Responsive Element Binding Protein) is a cellular transcription factor. It binds to certain DNA sequences called cAMP Responsive Elements (CRE) and regulates the transcription of the genes. […] This cell line can be used to find agonists/antagonists of the cyclic AMP signaling pathway. The activation of the report gene under culture conditions can be detected by fluorescence intensity. This cell line has been used to screen the Tox21 10K compound library to […].
Tox21 Assay Protocol Summary: CRE-bla Hek 293T cells were suspended in assay medium (DMEM containing 10% dialyzed FBS, 0.1 mM NEAA, 1 mM sodium pyruvate and 25 mM HEPES) and dispensed at 2,000 cells/4 uL /well into 1536-well black wall/clear bottom plates using a Multidrop Combi (ThermoFisher Scientific, Waltham, MA) dispenser. After the assay plates were incubated at 37 C/5% CO2 for 18 hrs, 23 nL of compounds dissolved in DMSO, positive controls or DMSO only was transferred to the assay plate by a pintool workstation (Kalypsys, San Diego, CA), followed by addition of 1 […] uL of 1.25uM NKH477 (0.25 uM as final concentration) in assay medium using a Flying Reagent Dispenser (Aurora Discovery, San Diego, CA). The plates were incubated at 37 C and 5% CO2 for 3 hrs. Then 1 uL of LiveBLAzer B/G FRET substrate (Invitrogen, Carlsbad, CA) was added to each well using Bioraptr Flying Reagent Dispenser (FRD, Aurora Discovery, San Diego, CA). The plates were incubated at room temperature for 2 h.
On the % scale 0 is the no-effect control and ±100 the full control effect.

SMILES | activity change, negative = inhibition
O=C(Cl)Oc1ccccc1 | inactive: -1.7%
O=[p+]1oc2ccccc2c2ccccc21 (stereo unspecified) | inactive: -0.84%
CC(C)CCCCCCCOP(OCCCCCCCC(C)C)Oc1ccccc1 | inactive: -16%
CCCCO[P+](=O)OCCCC | inactive: 5.72% and inactive: 1.52%
O=[N+]([O-])c1ccc([N+](=O)[O-])cc1 | inactive: -0.668%
CCCCOP(OCCCC)OCCCC | inactive: -0.884%
O=[N+]([O-])c1ccc(S(=O)(=O)O)c([N+](=O)[O-])c1 | inactive: 2.49%
O=P(Cl)(Cl)c1ccccc1 | inactive: -0.101%
CCOC(=O)Cl | inactive: 1.42%
CN(C(=O)Cc1cccc2occc12)[C@H]1CC[C@@]2(CCCO2)C[C@@H]1N1CCCC1 | inactive: -0.558%
COP(=S)(Cl)OC | inactive: -8.65%
CN(N=O)C(=N)N[N+](=O)[O-] | inactive: -3.44%
CCC(C)(OOC(C)(C)C)OOC(C)(C)C | inactive: -5.66% [at 18.9 µM]
CCCCC(CC)CO[P+](=O)OCC(CC)CCCC (stereo unspecified) | inactive: 2.99%
O=[P+](Oc1ccccc1)Oc1ccccc1 | inactive: -0.406%
CC(C)OP(=S)(OC(C)C)SCCNS(=O)(=O)c1ccccc1 | inactive: -15.6%
CCOP(=S)(CC)Sc1ccccc1 (stereo unspecified) | inactive: -10.9%
O=P(Cl)(Oc1ccccc1)Oc1ccccc1 | inactive: -1.05%
CCNC(C)Cc1ccc2c(c1)OCO2 (stereo unspecified) | inactive: 1.06%
CN(C(=O)Cc1ccc(Cl)c(Cl)c1)[C@H]1CC[C@@]2(CCCO2)C[C@@H]1N1CCCC1 | inactive: -3.32% [at 42.4 µM]
COC(=O)Cl | inactive: 1.32%
